Results: patent US9006439B2, “Camptothecin derivatives having anti-tumor activity” (priority 2011, dated 2015)

What follows are substances tested on U87, BX-PC3, HT-29, OV-3 and A549 cell lines (assay: MTT in vitro cytotoxicity, five cell lines together (mean / overall)). Details: A549, HT-29, OV-3, U87, BX-PC3.
Procedure: In vitro cytotoxicity was measured with MTT. Cell suspension was prepared using cells in good condition and seeded at 200 μl/well on a 96 well plate before culturing for 24 hours in a temperature-controlled CO2 incubator. The test drug was added at 20 μl/well and cultured for 48 hours. MTT was added to the 96 well plate at 20 ul/well and allowed to react for 4 hours in the incubator. The supernatant was removed and DMSO was added at 20 μl/well. Cytotoxicity was determined by the absorbance measured by Enzyme-linked immunosorbent assay at a wavelength of 570 nm.

**Q.** With “9-phenylaminoethylhydrazone-10-[(4′-piperidinylpiperidinyl)carbonyloxy]-camptothecin [CPT6]” as the substance, how does the “in vitro activity / cytotoxicity (in words)” value read?
**A.** do not have significant activities in vitro

**Q.** Which “in vitro activity / cytotoxicity (in words)” value does the source give for “9-t-butyloxyethyloxime-20-phenylalanine-carbonyloxy-camptothecin [CPT10]” here?
**A.** do not have significant activities in vitro

**Q.** How did the “in vitro activity / cytotoxicity (in words)” value turn out when “9-methoxyethyloxime-10-[(4′-piperidinylpiperidinyl) carbonyloxy]-camptothecin [CPT5]” was run?
**A.** do not have significant activities in vitro

**Q.** How did the “in vitro activity / cytotoxicity (in words)” value turn out when “9-t-butyloxyethyloxime-10-hydroxy-camptothecin [CPT2]” was run?
**A.** significant cytotoxicity
